Values quoted from earlier work in patent publication US20160051533A1, “DIAGNOSIS AND PHARMACOLOGICAL TREATMENT OF SEASONAL AFFECTIVE DISORDER AND SYMPTOMS OF SEASONALITY” (Ladd Research LLC, priority 2014, published 2016).
pIC50, pKd, pKi: −log10 of the molar value.

By UniProt entry, the sequences of proteins in these tests, tags left out.
UniProt O43613, whole entry: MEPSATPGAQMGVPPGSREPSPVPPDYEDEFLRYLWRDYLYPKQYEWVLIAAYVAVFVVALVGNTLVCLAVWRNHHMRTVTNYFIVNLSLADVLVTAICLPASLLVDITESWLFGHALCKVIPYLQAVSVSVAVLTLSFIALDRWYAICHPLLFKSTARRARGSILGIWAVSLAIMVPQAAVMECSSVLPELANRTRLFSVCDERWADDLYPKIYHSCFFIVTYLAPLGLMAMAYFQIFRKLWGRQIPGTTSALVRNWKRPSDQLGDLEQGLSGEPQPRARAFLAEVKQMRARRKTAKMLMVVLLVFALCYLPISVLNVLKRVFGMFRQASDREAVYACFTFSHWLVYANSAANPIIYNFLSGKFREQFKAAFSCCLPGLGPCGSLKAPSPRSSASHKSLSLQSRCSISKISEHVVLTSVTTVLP

How the values were obtained:
Human OxR1 [1] = biological target: T1, Human OxR1 (Homo sapiens, UniProt O43613); settings: read-out: Human OxR1 Ki; cited from earlier work
Human OxR1 [2] = biological target: T1, Human OxR1; settings: read-out: Human OxR1 RLIPR; cited from earlier work
Human OxR1 [3] = biological target: T1, Human OxR1; settings: [3H] Almorexant, one saturable site; cited from earlier work

Question: With CNC(=O)[C@@H](c1ccccc1)N1CCc2cc(OC)c(OC)cc2[C@@H]1CCc1ccc(C(F)(F)F)cc1.Cl [Almorexant HCl] as the compound, how does the pKi (Human OxR1 [1]) read?
Answer: 8.33

Question: And the pIC50 (Human OxR1 [2])?
Answer: 7.62

Question: And the pKd (Human OxR1 [3])?
Answer: 8.89
